Assay [1] has as its target Metabotropic glutamate receptor 5 (Homo sapiens, UniProt P41594). Nature of the assay: In vitro potency against human recombinant mGlu5 receptor was determined by [Ca2+] flux assay using glutamate as agonist. In kind it is functional. The gist of the method:
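Ltk cells stably expressing human recombinant mGlu5; automated assay of cytosolic Ca²⁺ changes by fura-2 fluorescence; IC50 from antagonist response. Mean with a spread value and n in parentheses.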

Chains of the proteins cited; added tags and fusions are not shown.
UniProt P41594, whole entry: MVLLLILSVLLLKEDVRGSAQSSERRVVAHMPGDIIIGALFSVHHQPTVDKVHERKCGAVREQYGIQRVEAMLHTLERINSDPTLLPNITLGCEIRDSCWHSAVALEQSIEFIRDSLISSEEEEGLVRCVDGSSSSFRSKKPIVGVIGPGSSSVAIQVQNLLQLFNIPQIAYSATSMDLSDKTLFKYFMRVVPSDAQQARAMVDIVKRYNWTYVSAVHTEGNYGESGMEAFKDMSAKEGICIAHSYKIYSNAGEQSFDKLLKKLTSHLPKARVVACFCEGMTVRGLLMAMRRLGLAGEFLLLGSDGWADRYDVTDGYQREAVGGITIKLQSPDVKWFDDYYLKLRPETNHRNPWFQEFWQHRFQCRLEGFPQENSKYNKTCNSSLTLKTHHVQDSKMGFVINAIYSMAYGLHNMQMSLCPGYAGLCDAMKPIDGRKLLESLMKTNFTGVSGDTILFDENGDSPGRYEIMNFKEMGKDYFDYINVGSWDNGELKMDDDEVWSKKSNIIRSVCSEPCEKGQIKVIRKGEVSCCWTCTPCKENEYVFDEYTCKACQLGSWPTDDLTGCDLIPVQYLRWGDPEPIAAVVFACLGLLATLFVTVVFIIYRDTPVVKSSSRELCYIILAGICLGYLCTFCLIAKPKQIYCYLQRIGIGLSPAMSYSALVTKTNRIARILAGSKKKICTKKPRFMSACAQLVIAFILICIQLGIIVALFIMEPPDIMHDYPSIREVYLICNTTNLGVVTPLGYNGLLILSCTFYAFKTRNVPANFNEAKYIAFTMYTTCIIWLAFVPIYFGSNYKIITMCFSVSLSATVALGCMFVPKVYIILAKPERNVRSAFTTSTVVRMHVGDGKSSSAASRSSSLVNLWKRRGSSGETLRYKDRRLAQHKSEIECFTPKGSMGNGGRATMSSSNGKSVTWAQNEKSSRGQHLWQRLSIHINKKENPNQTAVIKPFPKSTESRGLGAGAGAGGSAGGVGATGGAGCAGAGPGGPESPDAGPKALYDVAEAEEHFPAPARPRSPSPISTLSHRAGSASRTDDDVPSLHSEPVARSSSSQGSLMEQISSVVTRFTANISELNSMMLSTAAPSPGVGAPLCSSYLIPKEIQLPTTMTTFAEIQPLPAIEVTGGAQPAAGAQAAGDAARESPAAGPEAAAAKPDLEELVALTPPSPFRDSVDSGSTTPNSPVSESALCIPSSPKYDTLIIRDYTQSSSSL
UniProt P31424, whole entry: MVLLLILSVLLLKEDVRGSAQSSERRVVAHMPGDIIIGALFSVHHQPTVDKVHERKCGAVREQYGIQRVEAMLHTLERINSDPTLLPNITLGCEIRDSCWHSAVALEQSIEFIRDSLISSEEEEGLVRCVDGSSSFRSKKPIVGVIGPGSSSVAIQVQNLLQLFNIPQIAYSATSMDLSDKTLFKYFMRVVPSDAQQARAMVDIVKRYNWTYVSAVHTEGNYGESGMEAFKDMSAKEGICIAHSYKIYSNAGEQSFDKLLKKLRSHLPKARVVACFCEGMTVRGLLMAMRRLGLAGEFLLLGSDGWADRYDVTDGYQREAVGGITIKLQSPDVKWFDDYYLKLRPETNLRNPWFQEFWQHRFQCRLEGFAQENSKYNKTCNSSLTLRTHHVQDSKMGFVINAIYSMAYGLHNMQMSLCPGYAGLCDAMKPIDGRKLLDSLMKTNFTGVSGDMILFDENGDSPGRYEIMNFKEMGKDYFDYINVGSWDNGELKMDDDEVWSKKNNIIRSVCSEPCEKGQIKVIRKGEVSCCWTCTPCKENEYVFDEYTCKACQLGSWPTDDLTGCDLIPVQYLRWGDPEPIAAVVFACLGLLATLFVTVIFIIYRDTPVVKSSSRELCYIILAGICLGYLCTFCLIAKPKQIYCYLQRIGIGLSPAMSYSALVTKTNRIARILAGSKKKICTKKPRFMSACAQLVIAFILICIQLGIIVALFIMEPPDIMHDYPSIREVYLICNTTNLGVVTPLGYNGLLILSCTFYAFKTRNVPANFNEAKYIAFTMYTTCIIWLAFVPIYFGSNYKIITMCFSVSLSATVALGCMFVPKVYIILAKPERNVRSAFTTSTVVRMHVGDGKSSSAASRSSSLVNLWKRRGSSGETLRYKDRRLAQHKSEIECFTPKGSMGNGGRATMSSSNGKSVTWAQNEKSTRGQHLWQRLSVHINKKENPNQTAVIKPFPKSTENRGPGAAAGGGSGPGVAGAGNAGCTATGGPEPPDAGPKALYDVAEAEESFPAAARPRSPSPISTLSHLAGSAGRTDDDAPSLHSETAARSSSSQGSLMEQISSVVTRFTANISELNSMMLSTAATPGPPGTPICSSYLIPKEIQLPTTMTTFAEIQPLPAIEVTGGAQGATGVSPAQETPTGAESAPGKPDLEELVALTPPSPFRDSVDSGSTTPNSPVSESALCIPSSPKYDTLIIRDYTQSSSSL

For assay [2], the target named is Metabotropic glutamate receptor 5 (Rattus norvegicus, UniProt P31424). Description: Displacement by compound of [3H]3-methoxy-5-(pyridin-2-ylethynyl)pyridine from rat cortical membranes. In kind it is cell membranes, Membrane. An outline of the steps:
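Native rat mGlu5 binding: rat cortical membranes, displacement of [³H]-3-methoxy-5-(pyridin-2-ylethynyl)pyridine by test compound; Ki derived.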

One may read the IC50 as the point on the concentration scale where inhibition reaches its midpoint. Broadly, the Ki is a measure of affinity in units of concentration, obtained from inhibition or displacement. Turning to `Cc1nc(C#Cc2ccc(-c3ccccc3)nc2)cs1`, the concentration for half-maximal inhibition (IC50) in assay [1] turned out to be 0.5 nM. In assay [2], this compound returned a Ki of 2 nM.
In the case of `Cc1nc(C#Cc2ccc(-c3cccnc3)nc2)cs1`, in assay [1], the IC50 was found to be 2 nM. The compound further returned a Ki in assay [2] of 2 nM.
For `Cc1nc(C#Cc2cccc(-c3ccccc3)c2)cs1`, the IC50 in assay [1] is 41 nM. Moreover, the affinity in assay [2], expressed as Ki, was 16 nM.
In the case of `Cc1nc(C#Cc2cccnc2)cs1`, affinity in assay [2] was put at a Ki of 12 nM.

Source of the values: ChEMBL document CHEMBL1137127 (Bioorg Med Chem Lett, 2004).
